From US9249087B2, “HDAC inhibitors and therapeutic methods using the same” (THE BOARD OF TRUSTEES OF THE UNIVERSITY OF ILLINOIS, priority 2011, dated 2016)

Sequences of proteins named here, by UniProt entry; tags and fusion partners are left off. A change or cut given only in a name is not applied to a line headed by its entry.
UniProt Q9UBN7: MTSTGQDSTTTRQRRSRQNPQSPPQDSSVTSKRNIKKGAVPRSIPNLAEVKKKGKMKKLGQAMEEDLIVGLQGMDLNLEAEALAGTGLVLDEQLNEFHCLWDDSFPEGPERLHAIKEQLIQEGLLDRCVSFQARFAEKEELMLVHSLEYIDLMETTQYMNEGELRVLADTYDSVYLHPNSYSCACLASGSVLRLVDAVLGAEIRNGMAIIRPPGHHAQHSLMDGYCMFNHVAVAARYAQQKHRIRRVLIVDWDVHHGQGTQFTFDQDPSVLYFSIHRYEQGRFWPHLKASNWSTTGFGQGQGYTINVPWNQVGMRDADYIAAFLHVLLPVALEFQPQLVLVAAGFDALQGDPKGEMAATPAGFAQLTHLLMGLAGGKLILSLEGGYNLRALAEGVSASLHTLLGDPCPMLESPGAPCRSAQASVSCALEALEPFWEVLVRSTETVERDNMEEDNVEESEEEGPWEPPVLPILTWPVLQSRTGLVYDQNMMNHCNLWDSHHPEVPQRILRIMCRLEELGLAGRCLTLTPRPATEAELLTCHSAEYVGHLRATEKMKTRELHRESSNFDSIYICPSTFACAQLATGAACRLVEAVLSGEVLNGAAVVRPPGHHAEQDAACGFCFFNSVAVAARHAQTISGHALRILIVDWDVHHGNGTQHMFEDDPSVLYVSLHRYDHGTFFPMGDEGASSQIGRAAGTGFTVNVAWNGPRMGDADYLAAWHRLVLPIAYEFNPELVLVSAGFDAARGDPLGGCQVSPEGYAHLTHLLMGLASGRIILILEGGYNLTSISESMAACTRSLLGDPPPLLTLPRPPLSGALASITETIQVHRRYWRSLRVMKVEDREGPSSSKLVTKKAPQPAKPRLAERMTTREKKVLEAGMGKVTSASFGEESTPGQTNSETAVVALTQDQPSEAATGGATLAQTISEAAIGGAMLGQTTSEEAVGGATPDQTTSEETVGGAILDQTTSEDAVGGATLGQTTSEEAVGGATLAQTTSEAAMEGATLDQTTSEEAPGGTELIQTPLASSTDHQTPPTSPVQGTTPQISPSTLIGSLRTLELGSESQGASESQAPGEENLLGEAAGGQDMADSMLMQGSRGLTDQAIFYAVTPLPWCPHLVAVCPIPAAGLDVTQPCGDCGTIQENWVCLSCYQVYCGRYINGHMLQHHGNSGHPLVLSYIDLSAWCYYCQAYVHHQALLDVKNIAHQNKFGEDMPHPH

Experiments:
[1] = molecular target: T1, Human HDAC6 (Homo sapiens (Human), UniProt Q9UBN7); settings: original assay lacking detergent (Triton X100); cited from earlier work
[2] = molecular target: T1, Human HDAC6; assay: HDAC6 fluorogenic peptide deacetylation inhibition assay; type: biochemical

ISOX [reference compound]
HDAC6 IC50 previously found [1]: low picomolar
IC50 [2]: 2.4 nM
